The values that follow are results of earlier work, collected in patent US6417010B1, “Methods and apparatus for synthesizing labeled combinatorial chemistry libraries” (Discovery Partners International, priority 1993, dated 2002).

This series deals with Monoclonal antibody 3E7. The settings on record: solution assays, MAb 3E7; read-out: equilibrium binding constants (Kd); cited from earlier work.

With Tyr-Gly-Gly-L-Phe-L-Leu [YGGFL], the equilibrium dissociation constant (Kd) is 6.6 nM.
